Ab-95 light chain CDR variants: yeast mating affinities

Target: peptide PDVDLGDISGINAS, taken from heptad repeat 2 (HR2) of SARS-CoV-2 spike.

Each scFv is VH, the linker GGGGSGGGGSGGGGS, VL, as in the parent Ab-95, and differs from it in the CDRs of the light chain only.
VH: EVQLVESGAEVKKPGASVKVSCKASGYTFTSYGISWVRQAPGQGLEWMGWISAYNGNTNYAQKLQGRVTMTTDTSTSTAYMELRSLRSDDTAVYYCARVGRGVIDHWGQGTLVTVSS
VL: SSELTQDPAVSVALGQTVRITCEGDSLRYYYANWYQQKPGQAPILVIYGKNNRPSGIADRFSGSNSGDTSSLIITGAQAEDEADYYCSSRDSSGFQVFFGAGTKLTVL

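Variants in AAYL52 differ from the parent at up to three CDR positions; double and triple changes were sampled at random. Affinity was read by AlphaSeq, a pooled yeast mating assay with surface-displayed partners. The frequency of each diploid, read from paired DNA barcodes, reflects how well the two displayed proteins bind. The ratio of observed to expected reads was calibrated, replicate by replicate, on BCL2-family standards whose Kd was known from biolayer interferometry. Each pool was mated in three replicate cultures.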

Changes read parent residue, position, new residue, counted from the first residue of the VL shown.
Numbers give log10(Kd / nM), so 0 is 1 nM and 3 is 1 µM. Smaller is tighter.
"n.d." means that the variant was in the library but no mating with the target was seen in that replicate; the authors take this as a sign of poor binding, and no number exists.

| changes | log10 Kd (nM) by replicate | control signals |
|---|---|---|
| Y31D/P54F/S92Y | 2.12 1.90 1.45 | 3/9 (4.04) |
| R28W/Y29F/A32S | 4.47 5.56 n.d. | 5/9 (4.12) |
| R28L/V97S/F98G | 3.61 2.82 4.19 | 5/9 (4.59) |
| N33A/S55E/F95I | n.d. n.d. n.d. | 2/9 (3.16) |
| S89F/V97G | n.d. 4.52 n.d. | 2/9 (4.16) |
| P54R/S89N/S92L | 4.26 n.d. n.d. | 1/9 (5.24) |
| S26Q/N33M/R53K | 4.51 n.d. n.d. | 3/9 (4.51) |
| A32M/K50I/F95Q | 3.47 3.81 4.10 | 2/9 (4.12) |
| Y30H/G49A/N52L | 1.77 1.61 1.20 | 1/9 (4.43) |
| D25A/G94P/Q96G | n.d. n.d. n.d. | 1/9 (3.28) |
| Y30C/K50E/S92R | 1.76 1.65 1.47 | 3/9 (4.28) |
| Y29V | 2.95 2.87 2.32 | 3/9 (3.78) |
| Y30P/S55Q/S92R | 1.88 2.06 2.33 | 2/9 (4.03) |
| P54G/Q96T | 3.12 2.68 2.91 | 1/9 (5.11) |
| S88R/V97I/F98A | n.d. n.d. n.d. | 1/9 (3.33) |
| S26K/Y31S/Q96V | n.d. n.d. n.d. | 0/9 |
| G24I/S55R | 3.42 3.43 2.44 | 4/9 (4.05) |
| S55N/D91N | 2.48 1.84 1.61 | 3/9 (4.05) |
| D25M/L27S/N52E | 3.46 2.72 3.62 | 0/9 |
| G24I/R28H/S55L | 3.56 3.13 2.53 | 4/9 (3.73) |
| P54I/D91T/G94F | 3.10 5.70 n.d. | 1/9 (3.53) |
| G24L/S55D/F95P | n.d. n.d. n.d. | 0/9 |
| L27G/S88K | 4.08 n.d. 4.06 | 3/9 (4.27) |
| S88P/R90T/V97F | 3.47 n.d. n.d. | 1/9 (3.12) |
| D25G/R28E/F95E | 3.55 2.99 n.d. | 0/9 |
| K50N/P54N/G94A | n.d. 4.06 4.16 | 5/9 (3.34) |
| Y30Q/N52T/S92R | 1.62 1.19 1.46 | 0/9 |
| Y29V/Q96D/V97E | 3.14 5.66 2.94 | 4/9 (3.92) |
| R28H/R53I/S88H | 1.85 1.90 1.24 | 2/9 (3.45) |
| K50I/P54H/F95A | n.d. 5.56 3.88 | 4/9 (3.76) |
| S26N/N33W/N52F | 2.50 2.25 2.05 | 4/9 (4.05) |
| S92L/F95M/V97L | 5.48 n.d. n.d. | 1/9 (2.86) |
| N51R/S88N/S93A | 5.62 n.d. 3.17 | 2/9 (4.50) |
| S89T/R90D/F95E | n.d. n.d. n.d. | 0/9 |
| E23I/Y30S/Q96D | 1.49 1.46 0.84 | 5/9 (3.86) |
| S26I/N52P/P54D | 3.84 4.24 3.28 | 1/9 (3.74) |
| S88Y/R90P | 2.23 2.41 1.62 | 4/9 (3.46) |
| P54C/S93P | 3.10 3.38 2.19 | 3/9 (3.58) |
| Y31W/A32W/R53G | 5.13 n.d. 3.37 | 1/9 (4.45) |
| G24R/G94F/Q96P | 3.20 4.62 4.22 | 7/9 (3.95) |
| Y30E/F95N/V97W | 1.81 1.65 1.81 | 0/9 |
| E23W/S88I/S93N | 4.35 3.24 n.d. | 1/9 (4.52) |
| D25K/L27I/S55R | 3.73 3.65 3.74 | 6/9 (3.79) |
| R28N/K50M/R90D | 4.63 n.d. n.d. | 3/9 (4.45) |
| Y30V/P54D/Q96L | 2.34 2.31 2.19 | 5/9 (3.88) |

A selection of 3 entries from above:

| changes | log10 Kd (nM) by replicate | control signals |
|---|---|---|
| R28H/R53I/S88H | 1.85 1.90 1.24 | 2/9 (3.45) |
| G24R/G94F/Q96P | 3.20 4.62 4.22 | 7/9 (3.95) |
| S89T/R90D/F95E | n.d. n.d. n.d. | 0/9 |

For reference, the parent read 2.31 as the reference entry and 2.25 as a member of this library.
Background: pairings of library AAYL52 with three empty control strains gave a value in 28% of cases (median 3.91, 5th percentile 2.90). Values in that range, when seen in few replicates, are hard to tell from nonspecific mating. For each scFv, signals with the empty controls are counted beside the result, with their mean in brackets.

From the AlphaSeq antibody data of Engelhart et al. 2022 (doi:10.1038/s41597-022-01779-4), copy in the FLAb collection.